Sequences of proteins named here, by UniProt entry; tags and fusion partners are left off.
UniProt P0DMS8, whole entry: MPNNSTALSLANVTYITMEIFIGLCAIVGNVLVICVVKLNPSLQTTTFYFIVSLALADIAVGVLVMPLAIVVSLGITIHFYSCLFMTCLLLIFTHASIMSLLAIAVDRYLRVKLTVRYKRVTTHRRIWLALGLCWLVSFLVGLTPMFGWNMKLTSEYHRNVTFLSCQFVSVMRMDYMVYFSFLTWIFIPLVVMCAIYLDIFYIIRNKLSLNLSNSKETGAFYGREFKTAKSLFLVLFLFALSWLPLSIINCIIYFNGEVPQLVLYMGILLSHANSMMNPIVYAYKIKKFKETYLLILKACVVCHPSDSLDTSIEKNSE

According to patent publication US20120053176A1, “ADENOSINE A3 RECEPTOR MODULATING COMPOUNDS AND METHODS OF USE THEREOF” (AMBIT BIOSCIENCES CORP., priority 2010, published 2012):

Legend:
human ADORA3 [1] = molecular target: T1, human ADORA3 (Homo sapiens, UniProt P0DMS8); assay: PathHunter β-Arrestin assay, antagonist mode; type: cell-based; settings: human ADORA3-expressing PathHunter cell line, C1-MB-NECA agonist challenge at EC80
T1 construct: expressed in transfected cells

human ADORA3 [2] = molecular target: T1, human ADORA3; assay: PathHunter cAMP Hunter assay, antagonist mode; type: cell-based; settings: Gi antagonist mode; human ADORA3-expressing cAMP Hunter cell line; forskolin and C1-MB-NECA challenge at EC80
[3] = molecular target: T2, human adenosine A3 receptor (Homo sapiens, UniProt P0DMS8); assay: adenosine A3 receptor GTPγS binding assay in antagonist format; type: biochemical; settings: [35S]GTPγS bound relative to 2-C1-IB-MECA response; human CHO-K1 cells expressing human adenosine A3 receptor; 30° C., 30 min; read-out: IC50 against adenosine A3
T2 construct: expressed in transfected cells; host or cells: CHO-K1 cells

## Cc1cc(Nc2nc(C(O)c3ccc(F)cc3)nc3ccccc23)n[nH]1 (racemic) [Example 12, (R,S)-(4-fluorophenyl)(4-(5-methyl-1H-pyrazol-3-ylamino)quinazolin-2-yl)methanol hydrochloride]
Human ADORA3 [1]
  EC50: 0.0276 µM
Human ADORA3 [2]
  EC50: 0.0065 µM
[3]
  IC50: 0.0629 µM

Counter-ions that a name gives are not always drawn.
